Source: PubChem BioAssay AID602281 (The Scripps Research Institute Molecular Screening Center, 2012)
The list shows a part of the results, in another mix than the full data. Some salts or complexes appear as unconnected parts, following the source record. Active and inactive are the calls of the source.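 Rule for the calls: active = inhibition above the mean inhibition across every tested compound plus 3 SD (cut at about 22% in these data); inactive = the rest.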

Sequences of proteins named here, by UniProt entry; tags and fusion partners are left off.
UniProt Q00G26, whole entry, looked up: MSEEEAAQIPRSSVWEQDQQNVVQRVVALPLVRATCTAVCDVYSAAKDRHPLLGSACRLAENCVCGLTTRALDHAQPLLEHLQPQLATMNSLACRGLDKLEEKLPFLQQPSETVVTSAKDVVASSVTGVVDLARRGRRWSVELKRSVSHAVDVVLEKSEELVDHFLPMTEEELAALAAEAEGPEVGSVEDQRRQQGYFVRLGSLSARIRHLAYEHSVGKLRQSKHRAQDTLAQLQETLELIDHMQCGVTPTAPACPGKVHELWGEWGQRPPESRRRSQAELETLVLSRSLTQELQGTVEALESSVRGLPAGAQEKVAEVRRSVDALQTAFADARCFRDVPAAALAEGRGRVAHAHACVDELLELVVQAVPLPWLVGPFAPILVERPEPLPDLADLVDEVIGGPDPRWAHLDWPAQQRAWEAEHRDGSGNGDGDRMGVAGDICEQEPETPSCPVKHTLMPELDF
UniProt Q8WTS1, whole entry, looked up: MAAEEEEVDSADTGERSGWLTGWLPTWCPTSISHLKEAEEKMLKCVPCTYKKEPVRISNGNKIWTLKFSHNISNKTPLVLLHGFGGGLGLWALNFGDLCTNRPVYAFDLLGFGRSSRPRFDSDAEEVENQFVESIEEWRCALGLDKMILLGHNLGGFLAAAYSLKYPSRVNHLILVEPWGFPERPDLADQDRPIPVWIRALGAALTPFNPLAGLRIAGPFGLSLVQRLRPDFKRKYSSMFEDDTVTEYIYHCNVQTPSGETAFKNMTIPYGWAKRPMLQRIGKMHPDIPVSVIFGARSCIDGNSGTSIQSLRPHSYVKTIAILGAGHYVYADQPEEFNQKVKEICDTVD

These molecules were tested against Perilipin-5 (Homo sapiens) + 1-acylglycerol-3-phosphate O-acyltransferase ABHD5 (Homo sapiens) (UniProt Q00G26+Q8WTS1) (assay: blockers of ABHD5 binding to perilipin-5 – cell lysate, split luciferase complementation, luminescence, primary screen (AID 602281;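 note: 0% = DMSO only wells and the 100% control is not disclosed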)). Conditions: Split G. princeps luciferase complementation, 4 h, at 4 µM, stronger effect = higher value.

Row | Structure (SMILES) | inhibition
1 | Cc1cc(C)cc(OP(C)(N)=O)c1 (centres undefined) | inactive: 1.64%
2 | COc1ccccc1OP(C)(=O)Nc1cc(Cl)ccc1C (centres undefined) | inactive: 2.99%
3 | COc1ccc(OP(C)(=O)Nc2cccc(F)c2)cc1 (centres undefined) | inactive: -0.64%
4 | COc1ccccc1OP(C)(=O)Nc1ccc(C)cc1 (centres undefined) | inactive: 0.63%
5 | Cc1ccc(NP(C)(=O)Oc2ccccc2)c(C)c1 (centres undefined) | inactive: 1.34%
6 | CCOC(=O)c1ccc(NP(C)(=O)Oc2ccccc2)cc1 (centres undefined) | inactive: 5.48%
7 | O=[N+]([O-])c1ccc2c(c1)C=Nc1ccccc1O2 | inactive: 4.87%
8 | CC(C)(C)c1ccc(OP(C)(=O)Nc2ccc(SC(F)(F)F)cc2)cc1 (centres undefined) | inactive: -9.93%
9 | Cc1cccc(C)c1OP(C)(N)=O (centres undefined) | inactive: 0.66%
10 | O=[N+]([O-])c1cc([N+](=O)[O-])c(Nc2cccnc2)c([N+](=O)[O-])c1 | inactive: -7.81%
11 | COc1ccccc1-c1ccccn1.O=[N+]([O-])c1cc([N+](=O)[O-])c(O)c([N+](=O)[O-])c1 | inactive: 8.15%
12 | CCN(CC)CCCOC(=O)C(O)(c1ccccc1)c1ccccc1 | inactive: 4.42%
13 | CP(=O)(Nc1ccccn1)Oc1ccc(Cl)cc1 (centres undefined) | inactive: 1.98%
14 | CCOC(=O)c1ccc(NP(C)(=O)Oc2ccc(OC)cc2)cc1 (centres undefined) | inactive: 1.58%
15 | O=[N+]([O-])c1cc([N+](=O)[O-])c(O)c([N+](=O)[O-])c1.c1ccc(Oc2ccncc2)cc1 | inactive: 8.49%
16 | CCOP(C)(=S)SCC(=O)NC(C)C(=O)O (centres undefined) | inactive: 1.75%
17 | CCc1ccc(OP(C)(=O)N2CCN(c3ccc([N+](=O)[O-])cc3)CC2)cc1 (centres undefined) | inactive: 6.78%
18 | CP(=O)(NC(=O)Nc1ccccc1)Oc1ccccc1 (centres undefined) | inactive: -6.27%
19 | Cc1cc(C)cc(OP(C)(=O)Nc2ccc(SC(F)(F)F)cc2)c1 (centres undefined) | inactive: 4.28%
20 | Cc1ccc(Nc2c([N+](=O)[O-])cc([N+](=O)[O-])cc2[N+](=O)[O-])cc1 | inactive: -10.5%
21 | Cc1cccc(C)c1OP(C)(=O)Nc1ccc(SC(F)(F)F)cc1 (centres undefined) | inactive: -8.23%
22 | CP(=O)(Nc1ccc(SC(F)(F)F)cc1)Oc1ccc(Cl)cc1 (centres undefined) | inactive: -2.43%
23 | CP(=O)(Oc1ccccc1)OC(c1ccccc1)C(F)(F)F (centres undefined) | inactive: -2.15%
24 | CP(=O)(Nc1ccccc1Br)Oc1ccccc1 (centres undefined) | inactive: -0.95%
25 | COc1ccccc1OP(C)(=O)Nc1ccccc1 (centres undefined) | inactive: -1.63%

Row | Structure (SMILES) | inhibition
26 | CP(=S)(Nn1cnnc1)Oc1ccccc1 (centres undefined) | inactive: 8.33%
27 | COc1ccc(-c2ccccn2)cc1.O=[N+]([O-])c1cc([N+](=O)[O-])c(O)c([N+](=O)[O-])c1 | inactive: 4.5%
28 | CP(=O)(Nc1ccc(SC(F)(F)F)cc1)Oc1ccccc1 (centres undefined) | inactive: 2.05%
29 | CCCOc1ccc(NP(C)(=O)Oc2ccc(Cl)cc2)cc1 (centres undefined) | inactive: 0.65%
30 | COc1ccccc1OP(C)(=O)Nc1c(C)cccc1C (centres undefined) | inactive: -2.6%
31 | CN1CCCCC1COC(=O)C1(O)c2ccccc2CCc2ccccc21 (centres undefined) | inactive: 13.2%
32 | O=[N+]([O-])c1cc([N+](=O)[O-])c(Nc2nnnn2CCO)c([N+](=O)[O-])c1 | inactive: 11.1%
33 | CC1=C2N=C(C=C3N=C(C(C)=C4[N-][C@@](C)([C@@H]5N=C1[C@](C)(CCC(=O)NC[C@@H](C)OP(=O)([O-])O[C@H]1[C@@H](O)[C@@H](n6cnc7cc(C)c(C)cc76)O[C@@H]1CO)[C@H]5CC(N)=O)[C@@](C)(CC(N)=O)[C@@H]4CCC(N)=O)[C@@](C)(CC(N)=O)[C@@H]3CCC(N)=O)C(C)(C)[C@@H]2CCC(N)=O.[C-]#N.[Co+3] | inactive: -7.77%
34 | CCOC(=O)C(CC)C1=NC(C)(C)Cc2ccccc21.O=[N+]([O-])c1cc([N+](=O)[O-])c(O)c([N+](=O)[O-])c1 (centres undefined) | inactive: -5.16%
35 | Cc1nc2ccc3ccccc3c2s1.O=[N+]([O-])c1cc([N+](=O)[O-])c(O)c([N+](=O)[O-])c1 | inactive: 6.6%
36 | O=[N+]([O-])c1cc([N+](=O)[O-])c(-c2cnn(-c3ccccc3)c2)c([N+](=O)[O-])c1 | inactive: -4.02%
37 | CN(Cc1cccnc1)C(=O)COc1ccc(Cl)c(Cl)c1.O=[N+]([O-])c1cc([N+](=O)[O-])c(O)c([N+](=O)[O-])c1 | inactive: 15.3%
38 | O=[N+]([O-])c1cc([N+](=O)[O-])c(-n2nnc3ccccc32)c([N+](=O)[O-])c1 | inactive: 0.17%
39 | Cc1ccc(C)c(NP(C)(=O)Oc2ccccc2)c1 (centres undefined) | inactive: 3.31%
40 | CP(=O)(Nc1cccc(Br)c1)Oc1ccccc1 (centres undefined) | inactive: -2.75%
41 | Cc1cc(C)cc(OP(C)(=O)Nc2ccccn2)c1 (centres undefined) | inactive: -1.02%
42 | CCOC(=O)c1ccc(NP(C)(=O)Oc2cc(C)cc(C)c2)cc1 (centres undefined) | inactive: -0.47%
43 | Cc1cc(C)cc(OP(C)(=O)Nc2ccc(C)cc2C)c1 (centres undefined) | inactive: -3.59%
44 | COc1ccccc1OP(C)(=O)Nc1cccc(Br)c1 (centres undefined) | inactive: -2.89%
45 | CC1=NCCc2c1[nH]c1ccccc21.O=[N+]([O-])c1cc([N+](=O)[O-])c(O)c([N+](=O)[O-])c1 | inactive: 2.04%
46 | O=C(O)c1cccc(Nc2c([N+](=O)[O-])cc([N+](=O)[O-])cc2[N+](=O)[O-])c1 | inactive: 11.9%
47 | CP(=O)(Nc1ccccc1)Oc1ccc(F)cc1 (centres undefined) | inactive: -6.9%
48 | CCCCCOc1ccc(NP(C)(=O)Oc2ccc(Cl)cc2Cl)cc1 (centres undefined) | inactive: -6.99%
49 | O=[N+]([O-])c1cc([N+](=O)[O-])c(OC2CCCCC2O)c([N+](=O)[O-])c1 (centres undefined) | inactive: 4.35%
50 | Cc1c([N+](=O)[O-])cc([N+](=O)[O-])c(Br)c1[N+](=O)[O-] | inactive: -6.58%

Row | Structure (SMILES) | inhibition
51 | CCN(CC)CCCOC(=O)C(O)(c1ccccc1)C1CCCCC1 (centres undefined) | inactive: 0.63%
52 | CCOC(=O)c1ccc(NP(C)(=O)Oc2ccc(F)cc2)cc1 (centres undefined) | inactive: -1.08%
53 | COc1ccc(OP(C)(=O)Nc2ccc(SC(F)(F)F)cc2)cc1 (centres undefined) | inactive: -0.25%
54 | CCN(CC)CCCNc1ccccc1[N+](=O)[O-].O=[N+]([O-])c1cc([N+](=O)[O-])c(O)c([N+](=O)[O-])c1 | inactive: 9.87%
55 | COc1ccc2c(c1O)-c1c(O)c(OC)cc3c1[C@H](C2)[N+](C)(C)CC3.O=[N+]([O-])c1cc([N+](=O)[O-])c([O-])c([N+](=O)[O-])c1[O-] | inactive: -4.4%
56 | O=C(OC1CN2CCC1CC2)c1ccc([N+](=O)[O-])cc1 (centres undefined) | inactive: -5.98%
57 | O=C(OCCN1CCN(CCOCc2ccccc2)CC1)C(O)(c1ccccc1)c1ccccc1 | inactive: 2.73%
58 | CP(=O)(Nc1ccccc1F)Oc1ccccc1 (centres undefined) | inactive: -8.9%
59 | CC(C)c1ccc(OP(C)(=O)Nc2ccc(SC(F)(F)F)cc2)cc1 (centres undefined) | inactive: -13.3%
60 | O=[N+]([O-])c1cc([N+](=O)[O-])c(Nc2ccc(Cl)cc2)c([N+](=O)[O-])c1 | inactive: -11.3%
61 | Cc1ccccc1NP(C)(=O)Nc1ccccc1C | inactive: -0.6%
62 | O=[N+]([O-])c1cc([N+](=O)[O-])c(C(F)(F)F)c([N+](=O)[O-])c1O | inactive: 1.8%
63 | CP(=O)(Nc1ccc2c(c1)OCCO2)Oc1ccccc1 (centres undefined) | inactive: 5.89%
64 | CCOP(C)(=S)SCC(=O)NC(C)(CC)C(=O)O (centres undefined) | inactive: 4.26%
65 | CP(=O)(Nc1ccc(SC(F)(F)F)cc1)Oc1ccc(F)cc1 (centres undefined) | inactive: 2.74%
66 | Cc1c(C(c2ccc3c(c2)OCO3)c2c(C)n(C)n(-c3ccccc3)c2=O)c(=O)n(-c2ccccc2)n1C.O=[N+]([O-])c1cc([N+](=O)[O-])c(O)c([N+](=O)[O-])c1 | inactive: -1.81%
67 | O=[N+]([O-])c1ccc(OP2(=O)COCCO2)cc1 (centres undefined) | inactive: 10.1%
68 | Cc1cc(-c2cccc3ccccc23)c(C)cn1.O=[N+]([O-])c1cc([N+](=O)[O-])c(O)c([N+](=O)[O-])c1 | inactive: 5.19%
69 | O=[N+]([O-])c1cc([N+](=O)[O-])c(NCC2CCS(=O)(=O)C2)c([N+](=O)[O-])c1 (centres undefined) | inactive: -4.87%
70 | CN(C)CCOC(=O)C(O)(c1ccccc1)C1CCCCC1 (centres undefined) | inactive: 8.04%
71 | COc1ccc(NP(C)(=O)Oc2ccccc2OC)cc1 (centres undefined) | inactive: -3.47%
72 | COc1ccc(OP(C)(=O)Nc2cccc(Br)c2)cc1 (centres undefined) | inactive: 1.02%
73 | CCOC(=O)c1ccc(NP(C)(=O)Oc2ccc(Cl)cc2)cc1 (centres undefined) | inactive: -2.37%
74 | CP(=O)(OC12CC3CC(CC(C3)C1)C2)OC12CC3CC(CC(C3)C1)C2 | inactive: -2.93%
75 | CN(C)C(=O)c1c([N+](=O)[O-])cc([N+](=O)[O-])cc1[N+](=O)[O-] | inactive: 0.37%

Row | Structure (SMILES) | inhibition
76 | CC(C)(C)c1ccc(OP(C)(=O)O)cc1 | inactive: 8.48%
77 | COc1ccccc1OP(C)(=O)Nc1ccccc1Br (centres undefined) | inactive: 0.51%
78 | CP(=O)(Nc1ccc(Cl)cc1)Oc1ccc(F)cc1 (centres undefined) | inactive: 0.42%
79 | COc1ccccc1OP(C)(=O)Nc1c(C)n(C)n(-c2ccccc2)c1=O (centres undefined) | inactive: -4.78%
80 | O=C(OCCCN1CCCC1)C(O)(c1ccccc1)C1CCCCC1 (centres undefined) | inactive: -0.96%
81 | CP(=O)(Oc1ccccc1)N1CCOC1=O (centres undefined) | inactive: -5.25%
82 | CCc1ccc(OP(C)(=O)Nc2cccnc2)cc1 (centres undefined) | inactive: -9.9%
83 | CCN(CC)CC(O)COC(=O)C(O)(c1ccccc1)C1CCCCC1 (centres undefined) | inactive: -6.3%
84 | COc1ccc(OP(C)(=O)Nc2ccc(Br)cc2)cc1 (centres undefined) | inactive: -1.91%
85 | CP(=O)(Nc1ccccn1)Oc1ccccc1 (centres undefined) | inactive: 4.98%
86 | COc1ccccc1OP(C)(=O)Nc1ccc(C)cc1C (centres undefined) | inactive: 0.34%
87 | CCc1ccc(OP(C)(=O)O)cc1 | inactive: 2.87%
88 | O=[N+]([O-])c1cc([N+](=O)[O-])c(Nc2ccccn2)c([N+](=O)[O-])c1 | inactive: -12%
89 | Cc1c(NP(C)(=O)Oc2ccc(C(C)C)cc2)c(=O)n(-c2ccccc2)n1C (centres undefined) | inactive: 0.47%
90 | COc1ccc(OP(C)(=O)Nc2ccccn2)cc1 (centres undefined) | inactive: -10.3%
91 | CN(C)CCOC(=O)C(O)(c1ccccc1)C1CCCC1 (centres undefined) | inactive: 6.58%
92 | COc1ccccc1OP(C)(=O)Nc1ccc(Br)cc1 (centres undefined) | inactive: 1.56%
93 | CP(=O)(OCCOc1ccccc1)OCCOc1ccccc1 | inactive: 0.74%
94 | CCCCCCCCCCCCCCCC1C[N+](C)(C)CCOP(C)(=O)O1 (centres undefined) | inactive: 9.81%
95 | CP(=O)(Nc1ccc(Cl)cc1Cl)Oc1ccccc1 (centres undefined) | inactive: 3.38%
96 | COc1ccccc1OP(C)(=O)Nc1ccc(C)c(C)c1 (centres undefined) | inactive: 0.46%
97 | COc1ccc(OP(C)(=O)Nc2ccccc2Br)cc1 (centres undefined) | inactive: 5.18%
98 | O=C1C(O)=C([N+](=O)[O-])C(=O)C(O)=C1[N+](=O)[O-] | inactive: -8.44%
99 | Cc1cc(C)cc(OP(C)(=O)Nc2cccc(C(F)(F)F)c2)c1 (centres undefined) | inactive: -5.64%
